Assay results from patent US20240150300A1, “S-CONFIGURATION-CONTAINING AMINO BENZAMIDE PYRIDAZINONE COMPOUND, PREPARATION METHOD THEREFOR, AND PHARMACEUTICAL COMPOSITION AND APPLICATION THEREOF” (SHANGHAI INSTITUTE OF MATERIA MEDICA, CHINESE ACADEMY OF …, priority 2021, published 2024).

What was measured:
[1] = system: SKM-1 cells; assay: Antiproliferative activity, CCK-8, SKM-1; details: read-out: SKM-1 IC50, 72 h
[2] = system: HCT-116 cells; assay: Antiproliferative activity, CCK-8, HCT-116; details: read-out: HCT-116 IC50, 72 h

Row | Structure (SMILES) | IC50 [1] [nM] | IC50 [2] [nM]
1 | COc1cccc(-c2ccc(=O)n(C(C)c3ccc(C(=O)Nc4ccccc4N)cc3)n2)c1 (racemic) | 240 | 340
2 | C[C@H](c1ccc(C(=O)Nc2ccccc2N)cc1)n1nc(-c2ccccc2)ccc1=O |  | 1160
3 | C[C@H](c1ccc(C(=O)Nc2ccccc2N)cc1)n1nc(-c2ccc(CN(C)C)cc2)ccc1=O | 290 | 300
4 | CC(c1ccc(C(=O)Nc2ccccc2N)cc1)n1nc(-c2cccc(Cl)c2)ccc1=O (racemic) | 490 | 650
